{
  "source": "patent US20090221708A1",
  "about": "“Medicinal preparation” (priority 2004, published 2009)",
  "key": {"[1]": {"test_system": "cancer cells PC-3 (prostate carcinoma)", "experiment": "Example 1: mitochondrial membranes of cancer cells PC-3 in test tubes", "format": "cell-based"}, "melanoma-16": {"test_system": "melanoma-16", "experiment": "Example 8: mice inoculated with melanoma-16", "format": "in vivo", "settings": "single dose of 5 mg as a drink"}},
  "data": [
    {"substance": "Reaferon: recombinant α2 Interferon produced from the pseudomonad bacterial strain", "values": [
      {"measurement": "destruction of mitochondrial membranes", "setting": "[1]; PC-3, 24 hours at 37° C.", "value": "approx. 60%"},
      {"measurement": "mitochondrial membranes of cancer cells (appearance)", "setting": "[1]; PC-3, dilution 10^−5 mmol/l, 24 hours at 37° C.", "value": "membrane swelling"},
      {"measurement": "mice alive on the 36th day of the test", "setting": "melanoma-16", "value": 4, "unit": "mice"}
    ]}
  ]
}
